Values of other authors as cited in paper PMC7692841.

Sequences of proteins named here, by UniProt entry; tags and fusion partners are left off. A change or cut given only in a name is not applied to a line headed by its entry.
UniProt Q9NXR7: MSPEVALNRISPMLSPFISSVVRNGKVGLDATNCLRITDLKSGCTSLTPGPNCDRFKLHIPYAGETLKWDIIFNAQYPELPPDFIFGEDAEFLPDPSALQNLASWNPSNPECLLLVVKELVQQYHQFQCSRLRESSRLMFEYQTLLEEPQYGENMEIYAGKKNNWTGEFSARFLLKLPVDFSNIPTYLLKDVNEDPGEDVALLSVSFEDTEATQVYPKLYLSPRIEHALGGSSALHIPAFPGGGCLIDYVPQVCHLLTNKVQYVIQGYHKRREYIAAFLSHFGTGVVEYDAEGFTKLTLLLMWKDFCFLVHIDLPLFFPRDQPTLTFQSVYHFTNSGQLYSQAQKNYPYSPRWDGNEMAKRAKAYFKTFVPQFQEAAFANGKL

Target: Ubiquitin (Homo sapiens) (UniProt P0CG48)

Kd: 20 µM
Substance: BRE-MERIT40 complex (from UniProt Q9NXR7)
